Experimental data taken from ChEMBL document CHEMBL1125513, “Substituted 1-(aminomethyl)-2-(arylacetyl)-1,2,3,4-tetrahydroisoquinolines: a novel class of very potent antinociceptive agents with varying degrees of selectivity for kappa and mu opioid receptors” (1992).

The chains behind the UniProt entries cited, without tags or fusion partners. Where a name states a change or a piece, a line headed by the entry shows the natural chain unless it says otherwise.
UniProt P41145: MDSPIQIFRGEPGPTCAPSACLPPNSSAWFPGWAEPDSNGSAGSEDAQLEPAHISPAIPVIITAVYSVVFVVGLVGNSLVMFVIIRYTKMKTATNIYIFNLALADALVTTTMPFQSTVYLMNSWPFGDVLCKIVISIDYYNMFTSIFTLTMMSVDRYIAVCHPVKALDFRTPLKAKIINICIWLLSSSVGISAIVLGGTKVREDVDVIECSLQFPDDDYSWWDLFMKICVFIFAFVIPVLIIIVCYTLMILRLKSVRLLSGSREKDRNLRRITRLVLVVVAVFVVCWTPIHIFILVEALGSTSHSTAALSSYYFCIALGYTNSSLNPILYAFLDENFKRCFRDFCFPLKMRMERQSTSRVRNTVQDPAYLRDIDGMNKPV
UniProt P35372, whole entry, looked up: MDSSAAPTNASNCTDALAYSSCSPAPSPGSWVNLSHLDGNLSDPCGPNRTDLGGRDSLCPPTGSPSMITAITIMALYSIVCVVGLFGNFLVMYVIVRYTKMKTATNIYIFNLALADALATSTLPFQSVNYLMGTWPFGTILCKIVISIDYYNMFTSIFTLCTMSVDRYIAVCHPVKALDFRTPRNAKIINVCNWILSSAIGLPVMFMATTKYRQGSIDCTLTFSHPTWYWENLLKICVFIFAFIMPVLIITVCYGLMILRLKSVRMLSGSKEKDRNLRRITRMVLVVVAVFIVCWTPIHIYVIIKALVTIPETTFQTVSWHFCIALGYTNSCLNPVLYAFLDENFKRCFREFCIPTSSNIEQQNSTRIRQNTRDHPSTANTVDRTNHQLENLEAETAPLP

biological target: Opioid receptors; mu & kappa (Homo sapiens) (UniProt P41145+P35372); experiment: Selectivity Ratio is the ratio of opioid receptor kappa (Ki(nM)) to the opioid receptor mu (Ki(nM)); details: Cavia porcellus

In order of rising Selectivity ratio:
1. O=C(Cc1ccc(Cl)c(Cl)c1)N1CCc2c(O)cccc2C1CN1CCCC1 (stereo unspecified)  5.4
2. C[C@@H]1Cc2ccccc2[C@H](CN2CCCC2)N1C(=O)Cc1ccc(Cl)c(Cl)c1  26
3. C[C@@H]1CN(C(=O)Cc2ccc(Cl)c(Cl)c2)[C@@H](CN2CCCC2)c2ccccc21  94
4. CC1(C)CN(C(=O)Cc2ccc(Cl)c(Cl)c2)C(CN2CCCC2)c2ccccc21 (stereo unspecified)  104
5. O=C(Cc1ccc(Cl)c(Cl)c1)N1CCc2ccccc2C1CN1CCCC1 (stereo unspecified)  151
6. CN(C(=O)Cc1ccc(Cl)c(Cl)c1)C1CCCCC1N1CCCC1 (stereo unspecified)  280
